Data as given in publication PMC8524854, “A novel dual-prodrug carried by cyclodextrin inclusion complex for the targeting treatment of colon cancer” (Journal of Nanobiotechnology, 2021).

What was measured:
[1] = Pharmacokinetics: butyric acid in plasma after gavage; format: in vivo, SW620 tumor-bearing BALB/C nude mice; settings: gavage 0.366 g/kg
Protocol: SW620 tumor-bearing mice were randomly divided into 3 groups (n = 5). BBA, BBA/CM-β-CD, and BBA/FA-PEG-CM-β-CD were administered by gavage at a dose of 0.366 g/kg. The blood was collected respectively from the heart at 0.25, 0.5, 1, 2, 3, 4, 6, 8, 12, 24, 36, 48, and 72 h after administration. The whole blood was quickly centrifuged at 2000 × g for 5 min, and the upper plasma was precisely aspirated. Then 0.35 mL of methanol was added, vortexed for 2 min, and centrifuged at 3350 × g for 15 min. The supernatant was used to detect butyric acid by HPLC [45]. The pharmacokinetic parameters were calculated by non-compartmental analysis using Drug Analysis System (DAS 2.1.1, Shanghai, China).

[2] = test system: Kunming mice; format: in vivo; settings: 15th day after single oral gavage
Protocol: All animals were given a single oral gavage of 0.2 mL of different dosage forms, and their body weight was monitored every day. Meanwhile, the toxicity and mortality of all animals were observed every day. The conventional changes such as the cases of the diet, urine, and feces were recorded. On the 15th day after treatment, the blood of each group was collected from the heart and centrifuged at 1,000 × g for 10 min to collect serum. An automated biochemical analyzer was used to detect serum alanine aminotransferase (ALT), aspartate aminotransferase (AST), blood urea nitrogen (BUN), and creatinine (Cr). Meanwhile, the heart, liver, lung, and kidney were quickly excised, washed with normal saline, and weighed. The visceral index is estimated according to the following formula as Viscera Index (%) = Viscera Weight / Body Weight × 100. And then, all the tissues were fixed with 10% formalin and stained with hematoxylin & eosin (H&E) for pathological analysis.

Substance: 2-butyryl oxy-5-butylaminyl benzoic acid [BBA]
- T1/2 [1]: 3.396 ± 0.791 h
- Heart index [2]: 0.87 ± 0.08%
- Kidney index [2]: 2.55 ± 0.62%
- Liver index [2]: 7.05 ± 0.58%
- Lung index [2]: 0.80 ± 0.21%
